The numbers were not newly measured in PMC5691641, which cites them from elsewhere.

The chains behind the UniProt entries cited, without tags or fusion partners.
UniProt Q07812, whole entry: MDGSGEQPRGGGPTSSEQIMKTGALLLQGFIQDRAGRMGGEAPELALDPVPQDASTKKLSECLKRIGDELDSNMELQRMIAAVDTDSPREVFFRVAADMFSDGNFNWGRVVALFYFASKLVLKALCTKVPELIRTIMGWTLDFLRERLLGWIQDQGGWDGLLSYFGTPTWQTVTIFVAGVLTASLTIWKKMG
UniProt O43521, whole entry: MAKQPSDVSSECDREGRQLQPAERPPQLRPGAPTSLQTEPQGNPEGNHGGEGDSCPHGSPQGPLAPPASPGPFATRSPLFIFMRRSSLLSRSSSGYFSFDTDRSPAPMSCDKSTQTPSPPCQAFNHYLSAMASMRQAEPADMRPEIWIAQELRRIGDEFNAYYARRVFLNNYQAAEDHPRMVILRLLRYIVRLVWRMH

Broadly, the Kd is the concentration at which binding is half-saturated.

The target in the data set is Bax (Homo sapiens) (UniProt Q07812).

On to Bim (from UniProt O43521), for which the Kd was 3.1 µM.
